Reference: patent US12552790B2, “Positive modulators of the muscarinic acetylcholine receptor M4” (Vanderbilt University, priority 2023, dated 2026)

Test system: four strains of Salmonella
Settings: 5-100 μM

## [2H]C1([2H])Oc2ccc(OC3CCN(c4nc5c(cc4C)C(=O)NC5)CC3)cc2OC1([2H])[2H] [Compound 3, 2-(4-((2,3-dihydrobenzo[b][1,4]dioxin-6-yl-2,2,3,3-d4)oxy)piperidin-1-yl)-3-methyl-6,7-dihydro-5H-pyrrolo[3,4-b]pyridin-5-one]
  Ames test result: clean
